Assay results reported in ChEMBL document CHEMBL1146689, “The design and synthesis of a novel quinolizidine template for potent opioid and opioid receptor-like (ORL1, NOP) receptor ligands” (2004).

How the values were obtained:
[1] = target: Delta-type opioid receptor (Homo sapiens, UniProt P41143); assay: Binding affinity for human opioid receptor delta 1 using [3H]- CL-DPDPE as radioligand transfected into CHO cells
Mu-type opioid receptor = Mu-type opioid receptor (Homo sapiens, UniProt P35372); assay: Binding affinity for human opioid receptor mu 1 using [3H]- DAMGO as radioligand transfected into CHO cells
[2] = target: Kappa-type opioid receptor (Homo sapiens, UniProt P41145); assay: Binding affinity for human opioid receptor kappa 1 using [3H]- U-69,593 as radioligand transfected into CHO cells
Nociceptin receptor = Nociceptin receptor (Homo sapiens, UniProt P41146); assay: Binding affinity for human nociceptin (NOP) receptor using [3H]N/OFQ as radioligand transfected into CHO cells

Row | SMILES | Ki [1] [nM] | Ki (Mu-type opioid receptor) [nM] | Ki [2] [nM] | Ki (Nociceptin receptor) [nM]
1 | O=c1[nH]c2ccccc2n1[C@H]1CCN2[C@H](CCC[C@H]2C2CCCCC2)C1 | > 10000 | 119 | 227 | 189
2 | O=c1[nH]c2ccccc2n1[C@@H]1CCN2[C@H](CCC[C@H]2C2CCCCC2)C1 | 2080 | 46.8 | 2.3 | 28.7
